Test [1] deals with T1, KDR (VEGFR-2), full-length receptor on cells (human, UniProt P35968 20-1356).
T1 construct: whole, on cells; the assay field tells which cells; also called KDR-expressing cells

Amino acid sequences for entries named in this document (tags omitted). Residues count along the entry.
UniProt P35968, 20-1356: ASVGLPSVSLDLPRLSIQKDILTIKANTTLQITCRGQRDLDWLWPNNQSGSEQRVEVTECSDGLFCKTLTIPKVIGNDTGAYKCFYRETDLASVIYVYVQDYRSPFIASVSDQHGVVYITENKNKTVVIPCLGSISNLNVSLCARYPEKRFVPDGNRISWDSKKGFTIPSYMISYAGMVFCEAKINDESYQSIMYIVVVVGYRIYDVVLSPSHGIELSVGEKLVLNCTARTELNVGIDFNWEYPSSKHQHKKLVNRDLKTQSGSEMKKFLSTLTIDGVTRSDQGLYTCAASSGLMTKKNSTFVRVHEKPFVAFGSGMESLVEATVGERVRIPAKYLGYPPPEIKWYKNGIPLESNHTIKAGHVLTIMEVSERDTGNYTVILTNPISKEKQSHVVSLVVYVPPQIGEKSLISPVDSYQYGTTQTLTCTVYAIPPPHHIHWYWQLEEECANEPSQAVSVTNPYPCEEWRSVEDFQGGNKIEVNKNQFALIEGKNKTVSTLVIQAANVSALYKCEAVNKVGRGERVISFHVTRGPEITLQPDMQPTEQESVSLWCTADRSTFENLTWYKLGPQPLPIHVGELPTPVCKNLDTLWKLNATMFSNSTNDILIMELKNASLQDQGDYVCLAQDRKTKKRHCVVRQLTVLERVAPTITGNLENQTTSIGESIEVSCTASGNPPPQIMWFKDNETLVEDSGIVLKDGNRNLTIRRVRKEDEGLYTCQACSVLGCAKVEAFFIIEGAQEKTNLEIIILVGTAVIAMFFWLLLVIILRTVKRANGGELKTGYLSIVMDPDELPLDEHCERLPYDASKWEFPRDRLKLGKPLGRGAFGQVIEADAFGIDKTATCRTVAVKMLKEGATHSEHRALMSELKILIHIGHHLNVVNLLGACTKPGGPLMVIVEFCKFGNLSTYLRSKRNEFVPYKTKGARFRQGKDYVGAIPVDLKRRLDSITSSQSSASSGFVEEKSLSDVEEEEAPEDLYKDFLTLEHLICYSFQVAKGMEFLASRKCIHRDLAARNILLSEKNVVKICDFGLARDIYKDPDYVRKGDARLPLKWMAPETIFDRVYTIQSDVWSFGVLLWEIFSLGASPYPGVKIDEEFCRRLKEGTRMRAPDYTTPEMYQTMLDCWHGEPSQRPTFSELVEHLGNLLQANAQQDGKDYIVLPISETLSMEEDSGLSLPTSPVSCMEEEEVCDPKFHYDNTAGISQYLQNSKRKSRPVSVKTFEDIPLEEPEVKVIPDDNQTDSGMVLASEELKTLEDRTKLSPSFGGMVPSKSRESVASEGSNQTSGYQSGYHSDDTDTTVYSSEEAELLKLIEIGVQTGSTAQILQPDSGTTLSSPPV

For test [2], the target named is T1, KDR (VEGFR-2), full-length receptor on …. Briefly: biotinylated peptide (JJ spacer) in the neutravidin-HRP assay on KDR-expressing cells.

Read-outs that look alike come from different tables or passages of the source.

B1: tetrameric complex of biotinylated SEQ ID NO:356 (JJ spacer) with neutravidin-HRP (other)
peptide: AQDWYYDEILSMADQLRHAFLSGGGGGK
modifications: N-acetyl; C-terminal Lys(Biotin-JJ)-NH2
notes: peptides held on neutravidin-HRP (Pierce 31001)
In test [1], B1 yielded a dissociation constant Kd of 1.81 nM.

B2: biotinylated SEQ ID NO:338 (JJ spacer) complexed with neutravidin-HRP (other)
peptide: AGPTWCEDDWYYCWLFGTK
modifications: N-acetyl; disulfide; J (8-amino-3,6-dioxaoctanoyl) in the chain; C-terminal Lys(Biotin-JJ)-NH2
notes: peptides held on neutravidin-HRP
On to B2, for which binding in test [2] was characterised by a dissociation constant (Kd) of 3.02 nM.

B3: biotinylated SEQ ID NO:337 (JJ spacer) complexed with neutravidin-HRP (other)
peptide: VCWEDSWGGEVCFRYDPGGGK
modifications: N-acetyl; disulfide; C-terminal Lys(Biotin-JJ)-NH2
notes: as for B2
Regarding B3, the dissociation constant (Kd) in test [2] turned out to be 6.94 nM.

As a reminder, the Kd is the free concentration of one partner at which half of the binding sites on the other are occupied at equilibrium, for simple one-to-one binding. A low value points to tighter binding.

Source of the values: patent US20050250700A1 (BRACCO SUISSE, published 2005).
